Here are results for one compound from patent US8936808B1, “Opioid agonist/opioid antagonist/acetaminophen combinations” (Purdue Pharma L.P., priority 1997, dated 2015).

This experiment is classed as in vivo. The settings on record: in comparison to a 15 mg dose of hydrocodone.

With `CN1CC[C@]23c4c5ccc(O)c4O[C@H]2C(=O)CC[C@H]3[C@H]1C5` [Hydromorphone], the “Equianalgesic Doses of Opioids, Calculated Dose” value is reported as 3.375 mg.
